Yeast mating assay 2: variants of the scFv Ab-95

Target peptide (SARS-CoV-2 spike, HR2 region): PDVDLGDISGINAS

Each scFv is VH, the linker GGGGSGGGGSGGGGS, VL, as in the parent Ab-95, and differs from it in the CDRs of the light chain only.
VH: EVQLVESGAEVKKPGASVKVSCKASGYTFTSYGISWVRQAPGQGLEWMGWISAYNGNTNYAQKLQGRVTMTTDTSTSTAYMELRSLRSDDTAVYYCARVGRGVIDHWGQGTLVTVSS
VL: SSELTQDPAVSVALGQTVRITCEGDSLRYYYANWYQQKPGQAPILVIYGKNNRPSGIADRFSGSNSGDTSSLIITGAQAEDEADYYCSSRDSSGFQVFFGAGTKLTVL

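The starting antibody came from a phage panning campaign against this peptide. Library AAYL52 holds single substitutions and randomly drawn double and triple substitutions in the CDRs. Affinity was read by AlphaSeq, a pooled yeast mating assay with surface-displayed partners. Mating (16 h, 30 °C) was followed by selection of diploids and sequencing of their barcodes. The ratio of observed to expected reads was calibrated, replicate by replicate, on BCL2-family standards whose Kd was known from biolayer interferometry. Each pool was mated in three replicate cultures.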

Variants are written as CDR1, CDR2 and CDR3 of the light chain (limits as in the source). Parent: EGDSLRYYYAN, GKNNRPS, SSRDSSGFQVF. Every variant below is changed at V97 of the VL (sequential numbering). Kd is apparent (estimated from mating counts) and averaged on the log scale over replicates with a signal. Smaller is tighter. Where no diploid with the target was found in any replicate, the entry reads "no signal": below detection, most likely a poor binder, though not proof of it. For reference, the parent read 200 nM as the reference entry and 180 nM as a member of this library. As a blank, each scFv also met three strains without target: over library AAYL52, 28% of these pairings were detected, typically at 8.2 µM and seldom below 800 nM. The control count says in how many pairings with the empty strains this scFv gave a signal.

| CDR-L1 | CDR-L2 | CDR-L3 | Kd | detected | signal with controls |
|---|---|---|---|---|---|
| EGDSLRYYYAN | GKNARPS | SSRISSGFQNF | 6.3 µM | 2 of 3 | 1 of 9 |
| EGDSLRYYYAN | GKNNRPS | SSRDSSGFQEF | 19 µM | 1 of 3 | 2 of 9 |
| EGDSRRYYYAN | DKNNRPS | SSRDSSGFQHF | 50 µM | 2 of 3 | 3 of 9 |
| EGDSLRYYWAN | GMNNRPS | SSRDSSGFQQF | 680 nM | 3 of 3 | 2 of 9 |
| EGQSLRYYYAN | GKNNRPS | FSRDSSGFQTF | 120 nM | 3 of 3 | 1 of 9 |
| EGDALDYYYAN | GKNNRPS | SSRDSSGFQLF | 540 nM | 3 of 3 | 5 of 9 |
| EGDSLRAYYAN | GKNNDPS | SSRDSSGFQIF | 6.6 µM | 1 of 3 | 4 of 9 |
| EGDSCRYYYAN | GKNNRPS | RSRDSSGFQTF | 1.1 µM | 3 of 3 | 3 of 9 |
| DGDSLRYYYAN | GKNNRPS | SSRDSSGFQTY | 1.2 µM | 3 of 3 | 5 of 9 |
| EGDSLRYYYAN | GKNNRIS | SSRDSSGFQGF | 370 nM | 3 of 3 | 3 of 9 |
| EGDSLRYYYAN | GKNPRPS | SIRDSSGFQFF | 4.9 µM | 2 of 3 | 2 of 9 |
| EGDSLRYYYAN | GKNNRPS | SSRDSSGKQGE | 540 nM | 1 of 3 | 0 of 9 |
| EGDSLRYYYAN | GKNNRPS | MSRDSSGFQAF | 2.0 µM | 3 of 3 | 4 of 9 |
| EGDSLRYYMAN | GKNNRPS | SYRDSSGFQKF | 5.6 nM | 3 of 3 | 2 of 9 |
| EGDSLRYYYAN | RKNNRPS | SSRDSSRFQIF | no signal | 0 of 3 | 1 of 9 |
| EGDSLRYYYAN | GKNTRPP | SSRDSSGFQWF | 4.9 µM | 1 of 3 | 0 of 9 |
| EGDSKRYYYAN | GKNNRKS | SSRDSSGFQDF | no signal | 0 of 3 | 0 of 9 |
| EGDSLRYYYAN | GFNNRPS | SPRDSSGFQPF | 2.2 µM | 3 of 3 | 2 of 9 |
| EGDSLRLYYVN | GKNNRPS | SSRDSSGFQSF | no signal | 0 of 3 | 2 of 9 |
| EGDSSRYYYIN | GKNNRPS | SSRDSSGFQEF | 16 µM | 3 of 3 | 4 of 9 |
| EGDSPRYYYAN | WKNNRPS | SSRDSSGFQTF | 6.6 µM | 1 of 3 | 1 of 9 |
| EGDSLRYYYAN | GKNNRPS | SSRDSDGFQKF | 170 nM | 3 of 3 | 3 of 9 |
| EGDSLRYYYAN | GKNNRPH | SSCDSSGFQYF | 13 µM | 2 of 3 | 2 of 9 |
| EGDSLRYYYAN | GKNNRPS | KSRDSSGFIYF | 110 nM | 3 of 3 | 1 of 9 |
| EGDSLRYYYAN | GKNNRWG | SSRDSSGFQPF | 4.1 µM | 2 of 3 | 3 of 9 |
| EGDSLNYYYAN | GKNNRPS | SSRDVSGFQFF | 290 nM | 3 of 3 | 3 of 9 |
| ETDSIRYYYAN | GKNNRPS | SSRDSSGFQRF | 43 µM | 2 of 3 | 5 of 9 |
| EGDILRYYYAN | GKNNRPS | SSRDSSGIQIF | 120 µM | 2 of 3 | 3 of 9 |
| EGDSLRYYYCN | MKNNRPS | SSRDSSGFQLF | 72 µM | 2 of 3 | 2 of 9 |
| EGYSLRYYYAN | GKNNRPS | SSRDSSGFQIP | 270 nM | 3 of 3 | 0 of 9 |
| EGDSLRYYEAN | GKNNRPS | SSRDSSGFQWF | 18 µM | 1 of 3 | 1 of 9 |
| EGDSLRYYYAN | GKFNRPS | SSRDSSGFQEF | 770 nM | 1 of 3 | 3 of 9 |
| EGDSLRYYYAN | GKNNRPS | SSRLSSGFAFF | 370 nM | 3 of 3 | 1 of 9 |
| EEDSLRYYYAN | GKNNMPS | SSRDSSGFQGF | 94 µM | 2 of 3 | 5 of 9 |
| EGDSLRYYYAN | GKNNRPS | SSPDSSGFQQW | 710 nM | 3 of 3 | 1 of 9 |
| EGDSLRYYTAN | GKNNRPS | SSRDSSGMQIF | 270 nM | 3 of 3 | 3 of 9 |
| EGDSLRYYYAN | GKNNRPS | SSRDSSGFQHF | 410 nM | 2 of 3 | 1 of 9 |
| EGKSLRYYYFN | GKNNRPS | SSRDSSGFQSF | 8.7 µM | 1 of 3 | 2 of 9 |
| EGDSLRYYYAN | GKNNRPI | SSRDSSGFHCF | 2.4 µM | 3 of 3 | 2 of 9 |
| EGDSLRYYYAN | GKNCRPS | SSRDSSGFQEV | 11 µM | 2 of 3 | 3 of 9 |
| EGDSLRYYYAN | GFNNRPT | SSRDSSGFQPF | 5.0 µM | 2 of 3 | 1 of 9 |
| EGDSLRYYYAN | GKNNRPS | NSRDSSRFQCF | 9.8 µM | 1 of 3 | 2 of 9 |
| EGVSLRYYYAN | GKNFRPS | SSRDSSGFQYF | 620 nM | 3 of 3 | 4 of 9 |
| YGMSLRYYYAN | GKNNRPS | SSRDSSGFQYF | 11 µM | 2 of 3 | 2 of 9 |
| EGDSLRYEYAN | GKNNRPW | SSRDSSGFQQF | 19 nM | 3 of 3 | 3 of 9 |
| EGDSLRYYYAN | GKNNRGS | SSRDSSLFQYF | no signal | 0 of 3 | 3 of 9 |
| EGDSLRYYYAL | GKNNRPS | SSRDSSGFWTF | 10 µM | 2 of 3 | 2 of 9 |
| EGDSLRYYYAN | GKNNRWS | SSRDSSGFWRF | 2.9 µM | 1 of 3 | 0 of 9 |
| EGDSLRYYQAN | GKNNRPS | SSRDSSAFQQF | 6.4 µM | 3 of 3 | 1 of 9 |
| EGDSLRYYYAN | GKNNRTS | YSRDSSGFQHF | 2.9 µM | 3 of 3 | 1 of 9 |
| EGDSLRYYYAN | GKNNRPS | SSRDSSGGQKF | no signal | 0 of 3 | 1 of 9 |
| RGDSLREYYAN | GKNNRPS | SSRDSSGFQRF | 95 µM | 2 of 3 | 2 of 9 |
| EGDSLRYYWAN | GKNVRPS | SSRDSSGFQYF | 600 nM | 2 of 3 | 5 of 9 |
| EGKSLRYYYAN | GKNNEPS | SSRDSSGFQIF | no signal | 0 of 3 | 2 of 9 |
| EGDSLRYYYAN | GKNYRPS | SSRDSSGFQTF | 3.5 µM | 1 of 3 | 0 of 9 |
| EGDSLRYYYAN | GKNNRWS | SSRDSSGFQPE | no signal | 0 of 3 | 2 of 9 |
| EGDVLRYYYAN | GKNNRPS | SSRDSLGFQFF | 7.8 µM | 1 of 3 | 5 of 9 |
| DGDSLRYYYAN | GKNNRPS | ISRDSSGFQCF | 53 µM | 1 of 3 | 0 of 9 |
| EGDSPRYYYAN | MKNNRPS | SSRDSSGFQIF | no signal | 0 of 3 | 2 of 9 |
| ELDSLRYYYAN | GKNNRPS | FSRDSSGFQIF | 21 µM | 1 of 3 | 2 of 9 |
| EGDSLRYYYAN | GKNNRPS | SGRVSSGFQGF | 1.6 µM | 3 of 3 | 2 of 9 |
| EGDSLRYRYAN | GKNNYPS | SSRDSSGFQFF | 16 µM | 3 of 3 | 3 of 9 |

For reference, 4 entries of the list once more:

CDR-L1,CDR-L2,CDR-L3,Kd,detected,signal with controls
EGKSLRYYYAN,GKNNEPS,SSRDSSGFQIF,no signal,0 of 3,2 of 9
EGDSLRYYYAN,GKNNRPI,SSRDSSGFHCF,2.4 µM,3 of 3,2 of 9
EGDSLRYYEAN,GKNNRPS,SSRDSSGFQWF,18 µM,1 of 3,1 of 9
RGDSLREYYAN,GKNNRPS,SSRDSSGFQRF,95 µM,2 of 3,2 of 9

From the AlphaSeq antibody data of Engelhart et al. 2022 (doi:10.1038/s41597-022-01779-4), copy in the FLAb collection.